{"source": "patent US20140303092A1", "about": "“HEXADECYLOXYPROPYL CIDOFOVIR FOR THE TREATMENT OF DOUBLE-STRANDED DNA VIRUS INFECTION” (CHIMERIX, INC., priority 2011, published 2014)", "assay": "Study HDP-CDV-112: mass balance and metabolite profiling of 14C-radiolabeled HDP-CDV", "conditions": "drug-derived metabolites"}
{"substance": "(3-propoxy)acetic acid ester of CDV [CMX104]", "values": [{"measurement": "percent dose excreted in urine", "value": 3, "unit": "%"}]}
